The values below are quoted from earlier work in article PMC3196243.

This data set concerns the target PEP-19 IQ motif (Homo sapiens) (UniProt P48539). Particulars: cited from earlier work.

What is called Kd is a measure of binding affinity in units of concentration. On to Calmodulin (from UniProt P0DP23), for which the Kd is 13 µM.
